Consider 3 compounds from PubChem BioAssay (EPA / NIEHS).

Amino acid sequences for entries named in this document (tags omitted).
UniProt P11473, whole entry: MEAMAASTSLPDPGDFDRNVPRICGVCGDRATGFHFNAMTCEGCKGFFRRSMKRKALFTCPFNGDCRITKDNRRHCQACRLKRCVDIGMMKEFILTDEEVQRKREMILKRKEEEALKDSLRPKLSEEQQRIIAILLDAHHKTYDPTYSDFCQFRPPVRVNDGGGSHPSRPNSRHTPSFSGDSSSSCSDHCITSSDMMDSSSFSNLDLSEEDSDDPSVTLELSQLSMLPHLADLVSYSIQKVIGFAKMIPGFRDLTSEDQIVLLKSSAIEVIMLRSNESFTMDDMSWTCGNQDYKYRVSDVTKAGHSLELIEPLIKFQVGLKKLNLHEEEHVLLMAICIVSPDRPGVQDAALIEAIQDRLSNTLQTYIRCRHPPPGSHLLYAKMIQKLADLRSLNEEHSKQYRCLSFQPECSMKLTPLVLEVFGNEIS

Read-out in assay [1]: Monokine induced gamma interferon (MIG), CXCL9 (gene 4283)
The experiment in a line: BSK_3C_MIG: BioMAP Diversity Plus: 3C Assay for Monokine induced gamma interferon (MIG) Biomarker Activity (AID 2283021). As to conditions: actives raise or lower the signal; primary human endothelial cells (HUVEC). In outline: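 ELISA-measured MIG in dosed HUVEC 3C cultures at 24 h, analysed by bidirectional fitting with DMSO defining baseline activity.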

Assay [2] concerns the target human Vitamin D Receptor (VDR), VDR (gene 7421) (UniProt P11473). The experiment in a line: ATG_VDR_TRANS: Attagene TRANS-FACTORIAL HepG2 Assay for human Vitamin D Receptor (VDR) (AID 2283022; active = hit-call score of the fitted dose curve at least 0.9, where 1 is the maximum). In a few lines: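 RT-PCR/capillary electrophoresis read-out of reporter mRNA induction in transiently transfected HepG2; 24 h dosing; chimeric NR-Gal4 (TRANS format); gain-of-signal fit against DMSO baseline.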

A short description of assay [3]: BSK_3C_SRB: Viability Assessment in the BioMAP Diversity Plus: 3C Assay (AID 2283023).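 Also: cells read 24 h after compound dosing; fitted both ways against DMSO so a hit may be signal rise or drop.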 The following applies: primary human endothelial cells (HUVEC). In outline:
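HUVEC, 24 h post-dose; 10% TCA fix, 0.1% SRB stain, A560 nm. Bidirectional curve fit vs DMSO negative control.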

Read-out in assay [4]: Matrix Metallopeptidase 1 (MMP1), MMP1 (gene 4312)
The experiment in a line: BSK_BE3C_MMP1: BioMAP Diversity Plus: BE3C Assay for Matrix Metallopeptidase 1 (MMP1) Biomarker Activity (AID 2283024). As to conditions: actives raise or lower the signal; primary human bronchial epithelial cells. In a few lines: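 In this multiplexed primary-cell system, human bronchial epithelium received chemicals for 24 h before an ELISA for MMP1. Values reflect bidirectional fits normalised to the DMSO baseline.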

Assay [5] is described as follows: BSK_3C_Vis: BioMAP Diversity Plus: 3C Assay for Morphology Visualization (AID 2283025).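 Also: fitted both ways so gain or loss versus DMSO counts.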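 As to AC50: light microscopy image of cell morphology used as background control.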 The following applies: primary human endothelial cells (HUVEC). In outline:
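Light-microscopy morphology readout, 24 h exposure, human primary umbilical vein endothelium; analysed relative to DMSO with bidirectional fitting.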

Read-out in assay [6]: Pselectin, SELP (gene 6403)
The experiment in a line: BSK_4H_Pselectin: BioMAP Diversity Plus: 4H Assay for Pselectin Biomarker Activity (AID 2283026). The following applies: actives raise or lower the signal; primary human endothelial cells (HUVEC). In a few lines:
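Bidirectional fits against DMSO gave the endpoint. Cells: primary human umbilical vein endothelium, chemical-treated for 24 h before ELISA detection of P-selectin.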

Assay [7] in a line: BSK_4H_SRB: Viability Assessment in the BioMAP Diversity Plus: 4H Assay (AID 2283027).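 Also: cells exposed to compound for 24 h before staining.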 As to conditions: primary human endothelial cells (HUVEC). In outline:
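Cytotoxicity readout: sulforhodamine B (0.1%) staining of total protein after 10% TCA fixation, measured at 560 nm in human umbilical vein endothelium at 24 h. DMSO set the baseline; fitting was bidirectional.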

A short description of assay [8]: BSK_BE3C_SRB: Viability Assessment in the BioMAP Diversity Plus: BE3C Assay (AID 2283028). The following applies: primary human bronchial epithelial cells. In a few lines:
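Primary human bronchial epithelium; chemical dosing, 24 h; 10% TCA fix, 0.1% SRB stain, A560; bidirectional fit vs DMSO baseline.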

Read-out in assay [9]: Thrombomodulin, THBD (gene 7056)
The experiment in a line: BSK_3C_Thrombomodulin: BioMAP Diversity Plus: 3C Assay for Thrombomodulin Biomarker Activity (AID 2283029). The following applies: actives raise or lower the signal; primary human endothelial cells (HUVEC). In a few lines: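 In a multiplexed primary-cell system, human umbilical vein endothelium received chemical and was assayed 24 h later for thrombomodulin by ELISA. Parallel cultures were SRB-stained (0.1% SRB after 10% TCA fixation, read at 560 nm) to flag cytotoxicity.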

Read-out in assay [10]: Urokinase-type plasminogen activator receptor (uPAR), PLAUR (gene 5329)
The experiment in a line: BSK_4H_uPAR: BioMAP Diversity Plus: 4H Assay for Urokinase-type plasminogen activator receptor (uPAR) Biomarker Activity (AID 2283030). As to conditions: actives raise or lower the signal; primary human endothelial cells (HUVEC). In a few lines:
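HUVEC, 24 h post-dose; uPAR by ELISA; bidirectional fit vs DMSO baseline.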

Read-out in assay [11]: Vascular endothelial growth factor receptor 2 (Homo sapiens) (UniProt P35968)
The experiment in a line: BSK_4H_VEGFRII: BioMAP Diversity Plus: 4H Assay for Vascular endothelial growth factor receptor 2 (VEGFR2) Biomarker Activity (AID 2283031). The following applies: actives raise or lower the signal; primary human endothelial cells (HUVEC). In outline:
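HUVEC (human primary), 4H system; 24 h post-dose; VEGFRII by ELISA; bidirectional curve fit vs DMSO baseline; gain or loss of signal scored.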

Read-out in assay [12]: Human Leukocyte Antigen - DR isotype (HLADR), HLA-DRA (gene 3122)
The experiment in a line: BSK_BE3C_HLADR: BioMAP Diversity Plus: BE3C Assay for Human Leukocyte Antigen - DR isotype (HLADR) Biomarker Activity (AID 2283032). As to conditions: actives raise or lower the signal; primary human bronchial epithelial cells. In outline: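 BioMAP BE3C format: human bronchial epithelium, 24 h compound treatment, ELISA detection of HLA-DR, with bidirectional analysis relative to DMSO.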

Read-out in assay [13]: Vascular cell adhesion molecule 1 (VCAM1), VCAM1 (gene 7412)
The experiment in a line: BSK_4H_VCAM1: BioMAP Diversity Plus: 4H Assay for Vascular cell adhesion molecule 1 (VCAM1) Biomarker Activity (AID 2283033).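 As to outcome: cell-surface VCAM-1 protein measured by ELISA.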 As to conditions: actives raise or lower the signal; primary human endothelial cells (HUVEC). In a few lines:
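In this human endothelial (HUVEC) system, biomarker ELISA was run 24 h after compound addition, and total protein in parallel wells was assessed by SRB at 560 nm; DMSO served as negative control.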

Read-out in assay [14]: Interferon-gamma inducible Protein 10 (IP10), CXCL10 (gene 3627)
The experiment in a line: BSK_BE3C_IP10: BioMAP Diversity Plus: BE3C Assay for Interferon-gamma inducible Protein 10 (IP10) Biomarker Activity (AID 2283034). The following applies: actives raise or lower the signal; primary human bronchial epithelial cells. In outline:
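BE3C cells (human bronchial epithelial, primary); 24 h exposure; ELISA for IP-10; DMSO-referenced bidirectional fit.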

Read-out in assay [15]: Monokine induced gamma interferon (MIG), CXCL9 (gene 4283)
The experiment in a line: BSK_BE3C_MIG: BioMAP Diversity Plus: BE3C Assay for Monokine induced gamma interferon (MIG) Biomarker Activity (AID 2283035).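 Also: MIG protein measured by ELISA in BE3C cultures after 24 h of dosing.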 As to conditions: actives raise or lower the signal; primary human bronchial epithelial cells. In outline:
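hu bronchial epithelial 1° cells, 24 h cpd; MIG by ELISA; bidirectional fit, DMSO = baseline.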

Read-out in assay [16]: Transforming growth factor beta 1 (TGFb1), TGFB1 (gene 7040)
The experiment in a line: BSK_BE3C_TGFb1: BioMAP Diversity Plus: BE3C Assay for Transforming growth factor beta 1 (TGFb1) Biomarker Activity (AID 2283036;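 also: TGF-b1 protein level measured by ELISA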). The following applies: actives raise or lower the signal; primary human bronchial epithelial cells. In outline: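 TGF-b1 measured via ELISA, 24 h after chemical dosing of human bronchial epithelial cells (BE3C). Overt cytotoxicity assessed in parallel by SRB (0.1%, TCA-fixed, 560 nm); analysis bidirectional relative to DMSO.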

Read-out in assay [17]: Plasminogen activator inhibitor-1 (PAI1), SERPINE1 (gene 5054)
The experiment in a line: BSK_BE3C_PAI1: BioMAP Diversity Plus: BE3C Assay for Plasminogen activator inhibitor-1 (PAI1) Biomarker Activity (AID 2283037). As to conditions: actives raise or lower the signal; primary human bronchial epithelial cells. In outline: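 In this multiplexed primary-cell system, bronchial epithelial cells receive test chemical and are sampled at 24 h. PAI-1 is read by ELISA, with DMSO serving as negative control for bidirectional fitting.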

Read-out in assay [18]: urokinase plasminogen activator (uPA), PLAU (gene 5328)
The experiment in a line: BSK_BE3C_uPA: BioMAP Diversity Plus: BE3C Assay for urokinase plasminogen activator (uPA) Biomarker Activity (AID 2283038).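 Also: uPA protein level quantified by ELISA in cell cultures; uPA read one day after compound addition.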 The following applies: actives raise or lower the signal; primary human bronchial epithelial cells. In a few lines:
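ELISA read-out of uPA in human lung primary bronchial epithelial cultures, 24 h post-dosing. Gain or loss of signal fitted bidirectionally relative to DMSO baseline; cytotoxicity checked in parallel cultures via SRB total protein stain.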

Read-out in assay [19]: Urokinase-type plasminogen activator receptor (uPAR), PLAUR (gene 5329)
The experiment in a line: BSK_BE3C_uPAR: BioMAP Diversity Plus: BE3C Assay for Urokinase-type plasminogen activator receptor (uPAR) Biomarker Activity (AID 2283039).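 Also: uPAR protein level measured by ELISA on the cells; cells exposed to compound for one day before measurement.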 The following applies: actives raise or lower the signal; primary human bronchial epithelial cells. In outline:
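Chemically treated human bronchial epithelial cells (lung primary) are assayed for uPAR by ELISA after 24 h, with data fitted in both directions using DMSO as negative control.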

Read-out in assay [20]: Interleukin-6 (IL6), IL6 (gene 3569)
The experiment in a line: BSK_CASM3C_IL6: BioMAP Diversity Plus: CASM3C Assay for Interleukin-6 (IL6) Biomarker Activity for (AID 2283040). The following applies: actives raise or lower the signal; primary human coronary artery smooth muscle cells.

The list shows a part of the results, in another mix than the full data. Records with an inconclusive call do not appear. Active and inactive are the calls of the source. The calls were made as follows, unless noted: active = hit-call score of the fitted dose curve at least 0.9, where 1 is the maximum; inactive = score below 0.9.

One may read the AC50 as the midpoint of the concentration-response curve, whichever way the signal moves.

Regarding `CC(C)OP(OC(C)C)OC(C)C`, the outcome in [1], in [2], in assay [3], in assay [4], in [5] and in assay [6] was inactive. Moreover, the result in [7], in [8], in assay [9], in [10], in [11] and in assay [12] was inactive. Further, the result in assay [13], in [14], in assay [15], in [16], in [17] and in [18] was inactive. In addition, the outcome in [19] and in assay [20] was inactive.
`O=[N+]([O-])c1ccccc1[N+](=O)[O-]`: the outcome in assay [1], in assay [2], in [3], in [4], in assay [6] and in [7] was inactive. The outcome in [8], in [9], in assay [10], in assay [11], in assay [14] and in [15] was inactive. The outcome in assay [16], in assay [17], in [18], in assay [19] and in assay [20] was inactive. The concentration at half-maximal activity (AC50) in [5] was active: 39 µM; in [12], active: 23.6 µM; in assay [13], active: 13.2 µM.
Regarding `ClCCNCCCl`, in assay [2], the call was inactive.
